Source: patent publication US12564559B2, “Combinations of LSD1 inhibitors for use in the treatment of solid tumors” (Oryzon Genomics, S.A., priority 2016, dated 2026)

Tests used:
[1] = system: SCLC and NSCLC cell lines; experiment: Synergy Score (Loewe additivity, ATPLite growth inhibition) of combinations with the LSD1 inhibitor, Example 2 / Table 4; conditions: 2nd API combined with (trans)-N1-((1R,2S)-2-phenylcyclopropyl)cyclohexane-1,4-diamine; for Synergy Scores in NSCLC A549: NSCLC cell line A549; for Synergy Scores in NSCLC CAL-12T: NSCLC cell line CAL-12T; for Synergy Scores in NSCLC NCI-H441: NSCLC cell line NCI-H441; for Synergy Scores in SCLC NCI-H187: SCLC cell line NCI-H187; for Synergy Scores in SCLC NCI-H446: SCLC cell line NCI-H446; for Synergy Scores in SCLC NCI-H510: SCLC cell line NCI-H510; for Synergy Scores in SCLC NCI-H1048: SCLC cell line NCI-H1048; for Synergy Scores in SCLC NCI-H1417: SCLC cell line NCI-H1417; for Synergy Scores in SCLC NCI-H1876: SCLC cell line NCI-H1876; for Synergy Scores in SCLC SBC-5: SCLC cell line SBC-5
SCLC cell lines = experiment: In vitro Synergy Score of combinations with the LSD1 inhibitor in expanded panel of SCLC cell lines, Example 3 / Table 5; type: cell-based, human; conditions: for Synergy Scores of SCLC cell lines DMS-114: SCLC cell line DMS-114; for Synergy Scores of SCLC cell lines DMS-114 / Synergy Scores of SCLC cell lines NCI-H69 / Synergy Scores of SCLC cell lines NCI-H187 / Synergy Scores of SCLC cell lines NCI-H446 / Synergy Scores of SCLC cell lines NCI-H510 / Synergy Scores of SCLC cell lines NCI-H526 / Synergy Scores of SCLC cell lines NCI-H1417 / Synergy Scores of SCLC cell lines NCI-H1876 / Synergy Scores of SCLC cell lines NCI-H2171 / Synergy Scores of SCLC cell lines SHP-77: 2nd API combined with (trans)-N1-((1R,2S)-2-phenylcyclopropyl)cyclohexane-1,4-diamine, scores >6.4 considered significant; for Synergy Scores of SCLC cell lines NCI-H69: SCLC cell line NCI-H69; for Synergy Scores of SCLC cell lines NCI-H187: SCLC cell line NCI-H187; for Synergy Scores of SCLC cell lines NCI-H446: SCLC cell line NCI-H446; for Synergy Scores of SCLC cell lines NCI-H510: SCLC cell line NCI-H510; for Synergy Scores of SCLC cell lines NCI-H526: SCLC cell line NCI-H526; for Synergy Scores of SCLC cell lines NCI-H1417: SCLC cell line NCI-H1417; for Synergy Scores of SCLC cell lines NCI-H1876: SCLC cell line NCI-H1876; for Synergy Scores of SCLC cell lines NCI-H2171: SCLC cell line NCI-H2171; for Synergy Scores of SCLC cell lines SHP-77: SCLC cell line SHP-77
SCLC = experiment: Combination of the LSD1 inhibitor with SCLC standards of care etoposide and carboplatin (FIG. 2A); conditions: combination with (trans)-N1-((1R,2S)-2-phenylcyclopropyl)cyclohexane-1,4-diamine

## Cc1sc2c(c1C)C(c1ccc(Cl)cc1)=N[C@@H](CC(=O)OC(C)(C)C)c1nnc(C)n1-2 [(+)-JQ1, (S)-tert-butyl 2-(4-(4-chlorophenyl)-2,3,9-trimethyl-6H-thieno[3,2-f][1,2,4]triazolo[4,3-a][1,4]diazepin-6-yl)acetate]
[1]
  Synergy Scores in NSCLC A549: 0.07
  Synergy Scores in NSCLC CAL-12T: 0.51
  Synergy Scores in NSCLC NCI-H441: 0.12
  Synergy Scores in SCLC NCI-H187: 11.29
  Synergy Scores in SCLC NCI-H446: 1.74
  Synergy Scores in SCLC NCI-H510: 11.88
  Synergy Scores in SCLC NCI-H1048: 0.68
  Synergy Scores in SCLC NCI-H1417: 39.59
  Synergy Scores in SCLC NCI-H1876: 18.65
  Synergy Scores in SCLC SBC-5: 0.15
SCLC cell lines
  Synergy Scores of SCLC cell lines DMS-114: 1.55
  Synergy Scores of SCLC cell lines NCI-H69: 6.44
  Synergy Scores of SCLC cell lines NCI-H187: 2.83
  Synergy Scores of SCLC cell lines NCI-H446: 4.03
  Synergy Scores of SCLC cell lines NCI-H510: 24.21
  Synergy Scores of SCLC cell lines NCI-H526: 8.06
  Synergy Scores of SCLC cell lines NCI-H1417: 7.87
  Synergy Scores of SCLC cell lines NCI-H1876: 9.15
  Synergy Scores of SCLC cell lines NCI-H2171: 8.69
  Synergy Scores of SCLC cell lines SHP-77: 0.45
SCLC cell lines; combination with (trans)-N1-((1R,2S)-2-phenylcyclopropyl)cyclohexane-1,4-diamine, expanded panel of SCLC cell lines
  synergy with LSD1 inhibition: highly synergistic

## CC1(C)CCC(c2ccc(Cl)cc2)=C(CN2CCN(c3ccc(C(=O)NS(=O)(=O)c4ccc(N[C@H](CCN5CCOCC5)CSc5ccccc5)c(S(=O)(=O)C(F)(F)F)c4)cc3)CC2)C1 [ABT-263, 4-(4-{[2-(4-Chlorophenyl)-5,5-dimethyl-1-cyclohexen-1-yl]methyl}-1-piperazinyl)-N-[(4-{[(2R)-4-(4-morpholinyl)-1-(phenylsulfanyl)-2-butanyl]amino}-3-[(trifluoromethyl)sulfonyl]phenyl)sulfonyl]benzamide]
[1]
  Synergy Scores in NSCLC A549: 0.89
  Synergy Scores in NSCLC CAL-12T: 0.01
  Synergy Scores in NSCLC NCI-H441: 0.75
  Synergy Scores in SCLC NCI-H187: 14.31
  Synergy Scores in SCLC NCI-H446: 0.29
  Synergy Scores in SCLC NCI-H510: 18.16
  Synergy Scores in SCLC NCI-H1048: 14.92
  Synergy Scores in SCLC NCI-H1417: 19.10
  Synergy Scores in SCLC NCI-H1876: 23.63
  Synergy Scores in SCLC SBC-5: 3.35
SCLC cell lines
  Synergy Scores of SCLC cell lines DMS-114: 0.26
  Synergy Scores of SCLC cell lines NCI-H69: 8.22
  Synergy Scores of SCLC cell lines NCI-H187: 2.51
  Synergy Scores of SCLC cell lines NCI-H446: 1.41
  Synergy Scores of SCLC cell lines NCI-H510: 10.70
  Synergy Scores of SCLC cell lines NCI-H526: 4.18
  Synergy Scores of SCLC cell lines NCI-H1417: 12.21
  Synergy Scores of SCLC cell lines NCI-H1876: 21.80
  Synergy Scores of SCLC cell lines NCI-H2171: 6.19
  Synergy Scores of SCLC cell lines SHP-77: 3.59

## [NH2][Pt]1([NH2])[O]C(=O)C2(CCC2)C(=O)[O]1 [Carboplatin, cis-diammine(cyclobutane-1,1-dicarboxylate-O,O′)platinum(II)]
SCLC
  synergy with the LSD1 inhibitor to induce a cytotoxic response: synergized
[1]
  Synergy Scores in NSCLC A549: 0.03
  Synergy Scores in NSCLC CAL-12T: 0.06
  Synergy Scores in NSCLC NCI-H441: 1.27
  Synergy Scores in SCLC NCI-H187: 7.49
  Synergy Scores in SCLC NCI-H446: 1.58
  Synergy Scores in SCLC NCI-H510: 9.96
  Synergy Scores in SCLC NCI-H1048: 1.47
  Synergy Scores in SCLC NCI-H1417: 10.45
  Synergy Scores in SCLC NCI-H1876: 10.90
  Synergy Scores in SCLC SBC-5: 0.22
